Laboratory results published in publication PMC6344228 (2019).

Chains of the proteins cited; added tags and fusions are not shown.
UniProt P06493, whole entry: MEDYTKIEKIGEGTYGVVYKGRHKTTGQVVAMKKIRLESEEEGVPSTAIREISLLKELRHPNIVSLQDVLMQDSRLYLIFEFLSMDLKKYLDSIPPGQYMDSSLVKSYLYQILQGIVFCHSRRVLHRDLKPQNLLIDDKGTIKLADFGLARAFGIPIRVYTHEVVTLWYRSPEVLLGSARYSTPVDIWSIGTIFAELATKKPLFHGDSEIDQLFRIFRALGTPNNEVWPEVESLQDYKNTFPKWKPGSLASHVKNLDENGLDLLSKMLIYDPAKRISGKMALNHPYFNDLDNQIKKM

Molecular target: monomeric CDK1 (Homo sapiens, UniProt P06493)
Assay: Differential scanning fluorimetry (DSF), CDK1
Format: binding
Conditions: read-out: ΔTm CDK1

Structure (SMILES): COc1ccc2c(c1)/C(=C/c1cnc[nH]1)C(=O)N2 [SU9516]
- ΔTm at 10 µM: -1.5 °C
